Measured values taken from patent publication US8476051B2, “Thermostable alcohol dehydrogenase derived from Thermococcus guaymasensis” (priority 2008, dated 2013).

Legend:
CCC(C)O = test: purified protein, by the assay type; conditions: other: co-substrate NADP^+ (0.4 mM); 80.0 °C
[1] = tested on: nicotinamide adenine dinucleotide phosphate; test: purified protein, by the assay type; conditions: 80.0 °C
[2] = other: co-substrate 2-butanol (11 mM)
[3] = other: co-substrate 2-butanone (3 mM)

## T. guaymasensis ADH (Thermococcus guaymasensis)
CCC(C)O
  Km: 380 µM
  Vmax: 1250 U mg^−1
  kcat: 833 s⁻¹
  kcat/Km: 2,192,000 s^−1M^−1
[1]; [2]
  Km: 400 µM
  Vmax: 2000 µmol/min/mg
  kcat: 1330 s⁻¹
  kcat/Km: 3.33e+06 M⁻¹ s⁻¹
[1]; [3]
  Km: 11 µM
  Vmax: 237 µmol/min/mg
  kcat: 158 s⁻¹
  kcat/Km: 1.44e+07 M⁻¹ s⁻¹
